Target: T1, Trehalase (Rattus norvegicus, UniProt O70282)
T1 sequence (O70282 whole entry): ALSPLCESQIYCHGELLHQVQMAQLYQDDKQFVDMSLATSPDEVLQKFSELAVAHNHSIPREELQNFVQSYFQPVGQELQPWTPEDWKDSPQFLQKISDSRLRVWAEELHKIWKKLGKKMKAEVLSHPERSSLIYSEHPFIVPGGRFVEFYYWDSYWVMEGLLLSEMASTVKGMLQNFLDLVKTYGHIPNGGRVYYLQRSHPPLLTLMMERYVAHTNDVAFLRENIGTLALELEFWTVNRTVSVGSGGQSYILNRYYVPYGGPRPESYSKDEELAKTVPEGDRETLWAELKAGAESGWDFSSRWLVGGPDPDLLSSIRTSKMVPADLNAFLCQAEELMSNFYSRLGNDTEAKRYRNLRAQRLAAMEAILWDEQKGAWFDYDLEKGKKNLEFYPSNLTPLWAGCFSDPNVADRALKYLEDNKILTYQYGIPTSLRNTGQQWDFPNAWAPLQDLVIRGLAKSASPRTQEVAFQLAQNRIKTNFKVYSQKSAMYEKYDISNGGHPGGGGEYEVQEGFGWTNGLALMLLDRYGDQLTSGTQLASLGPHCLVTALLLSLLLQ
Test: Inhibition of Glycosidases (trehalase)in rat intestinal brush border membranes by D-glucose oxidase-peroxidase method
Format: cell membranes, Membrane

Row | IC50 [µM] | SMILES
1 | < 50 | CN1[C@H](CO)[C@@H](O)[C@H](O)[C@H]1CO
2 | < 50 | CCCCN1[C@H](CO)[C@@H](O)[C@H](O)[C@H]1CO
